Source: patent US12226449B2, “Materials and methods for the prevention of rheumatoid arthritis” (The University of Toledo, priority 2018, dated 2025)

Tested on: human PBMCs
Test: ELISPOT assay of IFN-γ and IL-17 secreting cells
Type: cell-based
Conditions: 14-3-3ζ cultures supplemented with IL-2
Description: Cells were plated with 14-3-3ζ protein in a 96-well plate for 14 days at 37° C. in complete RPMI culture medium. Phytohemagglutinin (PHA) was used as a positive control. 10 μl MTT was added at a concentration of 5 mg/mL, and the plate was further incubated at 37° C. in the dark for 3 hours. Supernatant was then removed, and 100 μL DMSO was added for another hour before reading the absorbance at 570 nm using FLUOstar Omega microplate reader (BMG Labtech). For T cell differentiation, PBMCs were incubated with 1 μg/ml of 14-3-3ζ for 7 days followed by either the cellular staining for FACS analysis or ELISPOT as per manufacture's protocol. For testing the effect of drugs, prednisolone, prednisone, as well as TJU103, were used at 1 μg/ml concentration and cyclophosphamide was used at 0.1 μg/ml concentration.
The protocol was adopted from Immunospot kit from Cellular Technology Limited. In short, PBMCs incubated with 14-3-3ζ for 7 days were plated on the antibody coated ELISPOT plates. About 100,000 cells/well were added and incubated for 2 days at 37° C. followed by the developing protocol. Plates were read with a Quantihub ELISPOT plate reader and manually counted.

Substance: IL-2: cytokine added to promote clonal expansion of T cells
- further increase in number of cells or cytokine positive cells on supplementation of 14-3-3ζ cultures: no further increase
